# Water solubility values, as collected for the OPERA models

Values as listed in the OPERA 2.9 repository of K. Mansouri.

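The numbers are reported measurements, compiled and curated for the OPERA QSAR suite. One number stands for a compound and property, with no spread given. Method, purity and exact conditions of the single measurements are not given. Where a salt, mixture or single isomer is drawn, the source does not say that exactly this form was tested. Unmarked limits or estimates from the upstream databases cannot be ruled out.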

Solubility in water is on a log10 molar scale (set defined at 25 °C). "n/a" marks a cell with nothing listed here.

| compound | name | log S (log10 mol/L) |
|---|---|---|
| C=C(C)C(=O)OCCCC(F)(F)C(F)(F)C(F)(F)C(F)(F)C(F)(F)C(F)(F)F | n/a | -6.769 |
| CCCCCCC(O)CCCCCCCCCCC(=O)NCCO (stereo not given) | Octadecanamide, 12-hydroxy-N-(2-hydroxyethyl)- | -4.621 |
| CCC1(CC=C2CCCc3cc(OC)ccc32)C(=O)CCC1=O | n/a | -4.839 |
| Clc1ccc(Oc2ccc(Cl)c(Cl)c2Cl)cc1 | n/a | -7.01 |
| CCCCC(CC)C(=O)OCC (stereo not given) | Hexanoic acid, 2-ethyl-, ethyl ester | -3.423 |
| Cc1ccc(C2=CCC(C3CCC4(CC3)OCCO4)CC2)cc1 (stereo not given) | n/a | -7.717 |
| Cc1nn(-c2cccc(Cl)c2)c(=O)[c-]1/N=N/c1cc(S(N)(=O)=O)ccc1[O-].Cc1nn(-c2cccc(Cl)c2)c(=O)[c-]1/N=N/c1cc(S(N)(=O)=O)ccc1[O-].[Co+3].[Na+] | n/a | -2.576 |
| O=C(Cl)COc1ccc(Cl)cc1Cl | (2,4-Dichlorophenoxy)acetyl chloride | -2.904 |
| CC(O)(c1ccc(Cl)cc1)c1ccc(Cl)cc1 | Chlorfenethol | -4.44 |
| CCCCCCCC/C=C\CCCCCCCC(=O)N(CCCC)CCCC | 9-Octadecenamide, N,N-dibutyl-, (9Z)- | -4.789 |
| CCOC(=O)CC1C=CCC1 (stereo not given) | 2-Cyclopentene-1-acetic acid, ethyl ester | -2.406 |
| CCC(Cc1ccc(C)cc1)(C(=O)c1ccc(N2CCOCC2)cc1)N(C)C (stereo not given) | n/a | -5.098 |
| CC(=O)O/N=C(\C(=O)Sc1nc2ccccc2s1)c1csc(N)n1 | n/a | -6.685 |
| COC(=O)c1cc(S(N)(=O)=O)ccc1S(=O)(=O)CCCO | Methyl 2-(3-hydroxypropylsulfonyl)-5-sulfamoylbenzoate | -1.382 |
| O=C1c2c(O)ccc(O)c2C(=O)c2c(Cl)ccc(Cl)c21 | 1,4-Dichloro-5,8-dihydroxyanthraquinone | -7.418 |
| Nc1ccc(Br)c(C(F)(F)F)c1 | 4-Bromo-alpha,alpha,alpha-trifluoro-m-toluidine | -2.465 |
| Fc1cccc(F)c1-c1nnc(-c2ccccc2Cl)nn1 | Diflovidazin | -6.12 |
| CCCCC(CC)COCCO (stereo not given) | 2-(2-Ethylhexyloxy)ethanol | -2.184 |
| COc1cc2[nH]c(=O)c(=O)[nH]c2cc1[N+](=O)[O-] | 1,4-Dihydro-6-methoxy-7-nitroquinoxaline-2,3-dione | -5.261 |
| CC1=CCC2C(C1)C2(C)C (stereo not given) | 3-Carene | -4.67 |
| O=C(O)c1ccc2cc(C(=O)O)ccc2c1 | 2,6-Naphthalenedicarboxylic acid | -7.858 |
| CC=CC(=O)N(CC)c1ccccc1C | Crotamiton | -2.76 |
| CC(O)COC(C)CO[C@@H]1C[C@H]2CC[C@]1(C)C2(C)C (stereo in doubt) | n/a | -3.244 |
| COC(=O)CN(CC(=O)OC)c1cc(NC(C)=O)c(/N=N/c2c(Br)cc([N+](=O)[O-])cc2[N+](=O)[O-])cc1OC | n/a | -6.664 |
| O=C(c1ccc(O)cc1)c1ccc(C(=O)c2ccc(O)cc2)cc1 | n/a | -6.6 |
| Nc1cccc(C(=O)O)c1 | Benzoic acid, 3-amino- | -1.366 |
| Clc1nc2ccccc2s1 | 2-Chlorobenzothiazole | -2.735 |
| CCCCCCC1(C)CCC(=O)O1 (stereo not given) | Dihydrojasmone lactone | -2.643 |
| CC(NC(=O)C(N)CC(=O)O)C(=O)NC1C(C)(C)SC1(C)C.CC(NC(=O)C(N)CC(=O)O)C(=O)NC1C(C)(C)SC1(C)C.O.O.O.O.O (stereo not given) | Alitame | -0.763 |
| CC(=O)OCC(=O)C1=CC[C@@H]2[C@H]3CCC4=CC(=O)C=C[C@@]4(C)[C@@H]3[C@H](OC(C)=O)C[C@@]12C | n/a | -5.029 |
| COC(=O)c1ccc(C(=O)Nc2cc(Cl)ccc2Cl)cc1[N+](=O)[O-] | n/a | -5.965 |
| CCOCOCC | Diethoxymethane | -0.173 |
| O=C1CCC(O)C2C3CCC(C3=C(Cl)Cl)C12 (stereo not given) | n/a | -3.514 |
| CCCCOC(=O)NC(=S)SCCCC | Butyl N-[(butylthio)thioxomethyl]carbamate | -5.13 |
| CC1=C(C=O)C(C)(C)CC=C1 | Safranal | -2.465 |
| SC1CCCCC1 | Cyclohexanethiol | -3.367 |
| CCCCCCCCCCCCCCCCCCOCCCCCCCCCCCCCCCCCC | 1-(Octadecyloxy)octadecane | -7.02 |

The last 3 entries again:

| compound | name | log S (log10 mol/L) |
|---|---|---|
| CC1=C(C=O)C(C)(C)CC=C1 | Safranal | -2.465 |
| SC1CCCCC1 | Cyclohexanethiol | -3.367 |
| CCCCCCCCCCCCCCCCCCOCCCCCCCCCCCCCCCCCC | 1-(Octadecyloxy)octadecane | -7.02 |